Test results reported in patent US20250312310A1, “Beta2-adrenergic receptor antagonists for use in treating diabetes or obesity” (NovelYeast bv, priority 2021, published 2025).
Where two headings read alike, the source gives them in different places.

By UniProt entry, the sequences of proteins in these tests, tags left out.
UniProt P07550, whole entry: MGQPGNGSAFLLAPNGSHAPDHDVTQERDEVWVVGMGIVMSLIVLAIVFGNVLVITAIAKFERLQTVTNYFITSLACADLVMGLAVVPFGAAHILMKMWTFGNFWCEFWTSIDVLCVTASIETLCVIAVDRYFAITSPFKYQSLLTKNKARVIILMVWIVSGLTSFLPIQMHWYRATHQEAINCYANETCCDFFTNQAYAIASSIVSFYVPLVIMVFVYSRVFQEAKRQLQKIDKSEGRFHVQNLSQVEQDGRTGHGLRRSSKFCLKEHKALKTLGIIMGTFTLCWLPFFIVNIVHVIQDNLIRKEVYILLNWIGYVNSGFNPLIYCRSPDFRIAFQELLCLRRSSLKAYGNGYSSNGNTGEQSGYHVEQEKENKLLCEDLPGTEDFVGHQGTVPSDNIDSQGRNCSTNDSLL

Biological target: human β2-AR (Homo sapiens, UniProt P07550)
Experiment: Calcium response (Fluo-4) in Flp-In-293 cells stably transfected with ADRB2 and GNA15
Assay type: cell-based
Conditions: for % INHIBTION: inhibitor 33.33 microM, 45 min pre-incubation; for % INHIBTION / IC50 / % INHIBITION: epinephrine 5 nM; for IC50: read-out: IC50 (microM); for Ki: read-out: Ki (microM)
[1] = calculated from IC50, [A] and EC50 (0.001 nM)
[2] = second CD3 compounds overview table

Row | % INHIBTION [%] | IC50 [µM] | Ki [1] [nM] | IC50 [2] [µM] | Ki [2] [nM] | % INHIBITION [2] [%] | SMILES
1 | 96 | 0.5 | – | – | – | – | Cc1cc(OCC(O)CNCCc2ccc(Cl)cc2Cl)c(C(C)C)cc1Cl (stereo not shown)
2 | 96 | 2.3 | 0.46 | – | – | – | CC(C)(CNCC(O)COc1ccccc1)CNCC(O)COc1ccccc1 (stereo not shown)

The next lines start with the compound.

Row | SMILES | % INHIBTION [%] | IC50 [µM] | Ki [1] [nM] | IC50 [2] [µM] | Ki [2] [nM] | % INHIBITION [2] [%]
3 | Cc1ccccc1OCC(O)CNCc1cccc(CNCC(O)COc2ccccc2C)c1 (stereo not shown) | 100 | 0.71 | 0.142 | – | – | –
4 | OC(CNCCc1ccccc1)COc1ccc(OCC(O)CNCCc2ccccc2)cc1 (stereo not shown) | 67 | 18.5 | 3.72 | – | – | –
5 | CC(C)(C)NCC(O)COc1cccc2[nH]cc(CC(=O)NN)c12 (racemic) [CD3 X] | – | – | – | 0.07 | 0.014 | 95
6 | CC(NCC(O)COc1ccc(C#N)cc1)c1ccc(S(N)(=O)=O)cc1 (stereo not shown) | 51 | 28 | 6.6 | – | – | –
7 | OC(CNCc1ccccc1)COc1ccc(OCC(O)CNCc2ccccc2)cc1 (stereo not shown) | – | – | – | 44 | – | 72
